# Test results taken from ChEMBL document CHEMBL4219127, “Structural design, synthesis and substituent effect of hydrazone-N-acylhydrazones reveal potent immunomodulatory agents” (Bioorg Med Chem, 2018).
# pIC50: −log10 of the molar value.
# Tests used:
# J774 [1] = assay: Cytotoxicity against BALB/c mouse J774 cells assessed as reduction in cell viability after 72 hrs by alamarBlue assay; format: cell-based; settings: j774, 72 h, strain BALB/c
# Splenocyte [2] = assay: Immunomodulatory activity in BALB/c mouse splenocytes assessed as inhibition of concanavalin A-induced lymphocyte proliferation by measuring [3H]-thymidine uptake after 48 to 72 hrs by scintillation counting analysis; settings: strain BALB/c
# Splenocyte [3] = assay: Cytotoxicity against BALB/c mouse splenocytes assessed as reduction in cell viability up to 12 uM
# J774 [4] = assay: Cytotoxicity against BALB/c mouse J774 cells assessed as reduction in cell viability up to 12 uM after 72 hrs by alamarBlue assay; settings: j774, 72 h, strain BALB/c
compound,measurement,setting,value
CC(/C=N/Nc1ccc([N+](=O)[O-])cc1)=N\NC(=O)c1cc([N+](=O)[O-])cc([N+](=O)[O-])c1,CC50,J774 [1],17.8 µM
same,pIC50,Splenocyte [2],6.57
same,Activity,Splenocyte [3],Non-Toxic
same,Activity,J774 [4],Non-Toxic
